Values quoted from earlier work as cited in PMC7933454.

Biological target: TNF (Homo sapiens) (UniProt P01375)
Test: SPR

Kd: 0.049 nM
Substance: adalimumab IgG
